Apparent affinities of Ab-14 variants for a coronavirus HR2 peptide

Target: peptide PDVDLGDISGINAS, taken from heptad repeat 2 (HR2) of SARS-CoV-2 spike.

Parent: Ab-14, a human scFv built as VH, the linker GGGGSGGGGSGGGGS, VL. Only the CDRs of the light chain vary.
VH: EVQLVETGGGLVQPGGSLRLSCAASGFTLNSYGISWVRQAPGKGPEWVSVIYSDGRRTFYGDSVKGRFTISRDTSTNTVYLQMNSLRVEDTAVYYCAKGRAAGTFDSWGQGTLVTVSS
VL: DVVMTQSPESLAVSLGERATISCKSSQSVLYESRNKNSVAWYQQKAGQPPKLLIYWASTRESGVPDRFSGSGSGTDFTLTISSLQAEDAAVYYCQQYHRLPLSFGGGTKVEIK

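The parent was found by panning a naive human phage display library on the peptide. In library AAYL50, one, two or three CDR residues were substituted; doubles and triples were drawn at random. Affinity was read by AlphaSeq, a pooled yeast mating assay with surface-displayed partners. Mating (16 h, 30 °C) was followed by selection of diploids and sequencing of their barcodes. A regression on co-assayed BCL2-family reference pairs converts the normalised counts of each replicate to an apparent Kd. Mating was done three times.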

Changes read parent residue, position, new residue, counted from the first residue of the VL shown. Numbers give log10(Kd / nM), so 0 is 1 nM and 3 is 1 µM. Smaller is tighter. Replicates are averaged; those with no signal do not enter the mean. Where no diploid with the target was found in that replicate, the entry reads "nd": below detection, most likely a poor binder, though not proof of it. For reference, the parent read 0.65 as the reference entry and 1.68 as a member of this library. Nonspecific signal, from three strains lacking the peptide, appeared in 18% of pairings of library AAYL50, centred on 4.19 (5% of these signals below 2.99); values are not corrected for it. The control count says in how many pairings with the empty strains this scFv gave a signal, with their mean in brackets.

changes	replicates, log10 nM	mean log10 Kd (nM)	control signals
K24S+S38P+L100P	2.17 / 2.78 / 2.42	2.46	2/9 (3.74)
V29C+E32W+S62F	3.14 / 2.84 / 3.14	3.04	6/9 (4.27)
E61A+Q96H+S103H	1.70 / 1.58 / 1.81	1.70	6/9 (4.44)
R34Y+K36E+Q96S	1.43 / 1.43 / 1.49	1.45	4/9 (4.08)
Q27T+E61T	0.76 / 0.90 / 0.96	0.87	2/9 (6.19)
A40R	nd / nd / nd	nd	1/9 (4.09)
S25F+S38M+L100S	0.80 / 0.62 / 0.98	0.80	0/9
V39E+T59P+P101I	nd / nd / 5.09	5.09	2/9 (4.57)
S25L+N37M+L100P	0.53 / 0.37 / 0.29	0.40	4/9 (3.60)
K24D+N37S	2.52 / 1.80 / 2.31	2.21	2/9 (3.64)
T59S+S62D+P101C	nd / 3.13 / nd	3.13	4/9 (3.78)
E32H+S38F+S103A	nd / 4.31 / 4.66	4.48	3/9 (4.97)
N37G+V39W+W56F	nd / nd / nd	nd	1/9 (3.75)
V29G+R34Q+L100K	nd / nd / nd	nd	2/9 (4.39)
S33Q+A40W+Q96L	nd / nd / nd	nd	0/9
P101F+S103D	1.38 / 1.34 / 1.51	1.41	1/9 (3.25)
L30H+V39L+W56R	2.72 / 2.43 / 1.85	2.33	0/9
K24I+V39Y+Y97T	nd / nd / nd	nd	0/9
V29I+S58N+H98P	1.53 / 1.44 / 1.77	1.58	2/9 (5.39)
L30E+Y31T+N35P	0.94 / 1.15 / 1.36	1.15	6/9 (4.76)
S58G+P101N+S103L	nd / nd / nd	nd	0/9
L30A+W56I+S62T	3.35 / 2.14 / nd	2.75	0/9
S25V+V39D+L102P	nd / nd / nd	nd	0/9
R34H+N35D+Y97H	3.74 / 3.20 / 2.65	3.20	0/9
E32R+A40L+P101F	nd / nd / nd	nd	0/9
S26Q+S28K+R34Q	1.84 / 1.90 / 2.12	1.95	1/9 (4.83)
V29I+Q96Y+R99Q	3.46 / 4.12 / 3.70	3.76	0/9
L30V+S38Y+E61V	1.85 / 1.71 / 2.00	1.85	2/9 (3.78)
W56E+S58D	-0.04 / 0.25 / -0.15	0.02	0/9
S28D+R99H+L102V	0.42 / 0.83 / 0.76	0.67	4/9 (4.79)
K24H+S38G+R60E	nd / nd / 3.99	3.99	0/9
Y31T+E61S+L100S	2.55 / 2.54 / 2.14	2.41	2/9 (4.31)
L30F+R60A	1.88 / 2.09 / 1.78	1.92	0/9
Q27F+V29S+P101D	nd / nd / nd	nd	2/9 (3.68)
Y31Q+V39F+P101Q	nd / 3.03 / nd	3.03	0/9
K36R+L100Y+L102I	nd / nd / nd	nd	1/9 (4.11)
K36T+H98C	1.25 / 1.40 / 1.51	1.39	0/9
A57D+R60K	1.64 / 1.18 / 1.61	1.48	0/9
S28T+L30V	0.93 / 1.15 / 1.39	1.16	1/9 (3.16)
Y31T+A57Y+P101H	nd / nd / 5.87	5.87	4/9 (4.64)
A40C+R60Y+E61R	nd / nd / nd	nd	1/9 (4.75)
S62D+H98G+P101W	1.61 / 1.54 / 1.72	1.62	2/9 (3.50)
A40V+S58Y+T59R	nd / nd / nd	nd	1/9 (4.65)
K24P+S38N+Y97K	5.30 / 3.83 / 5.87	5.00	2/9 (4.46)
S26F+L100F+L102M	nd / nd / nd	nd	0/9
K24Q+S26K+L100E	nd / nd / nd	nd	4/9 (3.74)
L30T+A40T+S62Q	nd / nd / nd	nd	3/9 (3.37)
N35T+W56I+Q95C	nd / nd / nd	nd	0/9
R60Q+E61A+L102N	nd / nd / nd	nd	0/9
Y31P+K36N	1.12 / 1.02 / 1.12	1.09	1/9 (3.53)

The opening 4 entries, copied out:

| changes | replicates, log10 nM | mean log10 Kd (nM) | control signals |
|---|---|---|---|
| K24S+S38P+L100P | 2.17 / 2.78 / 2.42 | 2.46 | 2/9 (3.74) |
| V29C+E32W+S62F | 3.14 / 2.84 / 3.14 | 3.04 | 6/9 (4.27) |
| E61A+Q96H+S103H | 1.70 / 1.58 / 1.81 | 1.70 | 6/9 (4.44) |
| R34Y+K36E+Q96S | 1.43 / 1.43 / 1.49 | 1.45 | 4/9 (4.08) |

The measurements come from Engelhart et al. 2022 (doi:10.1038/s41597-022-01779-4) through the FLAb antibody collection.